Results from US8575359B2, “Acid-sensitive linkers for drug delivery” (The Regents of the University of California, priority 2006, dated 2013).

Conditions: buffer

half-life (t1/2) for hydrolysis at pH=7.4 by RP-HPLC: 1150 hours
half-life for hydrolysis at pH=5.5 by RP-HPLC: 55 hours
Substance: N-ethoxybenzylimidazole-doxorubicin Conjugate [Compound 9]
